Publication PMC6941357, “An in vitro toolbox to accelerate anti-malarial drug discovery and development” (Malaria Journal, 2020)
pIC50, pKi: −log10 of the molar value.

Amino acid sequences for entries named in this document (tags omitted).
UniProt P33261, whole entry: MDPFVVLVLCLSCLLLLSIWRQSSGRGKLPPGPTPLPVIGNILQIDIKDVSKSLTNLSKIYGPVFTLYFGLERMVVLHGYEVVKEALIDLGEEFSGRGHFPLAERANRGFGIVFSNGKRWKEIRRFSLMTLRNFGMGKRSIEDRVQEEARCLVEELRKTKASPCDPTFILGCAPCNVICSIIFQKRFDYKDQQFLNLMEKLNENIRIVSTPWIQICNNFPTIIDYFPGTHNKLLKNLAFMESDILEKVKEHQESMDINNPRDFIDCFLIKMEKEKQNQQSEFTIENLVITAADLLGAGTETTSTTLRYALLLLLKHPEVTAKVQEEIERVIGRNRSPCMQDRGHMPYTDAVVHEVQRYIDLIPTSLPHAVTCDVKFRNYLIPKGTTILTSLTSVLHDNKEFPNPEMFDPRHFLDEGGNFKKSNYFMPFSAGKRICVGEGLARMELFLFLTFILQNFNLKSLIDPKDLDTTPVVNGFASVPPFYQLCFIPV
UniProt P11712, whole entry: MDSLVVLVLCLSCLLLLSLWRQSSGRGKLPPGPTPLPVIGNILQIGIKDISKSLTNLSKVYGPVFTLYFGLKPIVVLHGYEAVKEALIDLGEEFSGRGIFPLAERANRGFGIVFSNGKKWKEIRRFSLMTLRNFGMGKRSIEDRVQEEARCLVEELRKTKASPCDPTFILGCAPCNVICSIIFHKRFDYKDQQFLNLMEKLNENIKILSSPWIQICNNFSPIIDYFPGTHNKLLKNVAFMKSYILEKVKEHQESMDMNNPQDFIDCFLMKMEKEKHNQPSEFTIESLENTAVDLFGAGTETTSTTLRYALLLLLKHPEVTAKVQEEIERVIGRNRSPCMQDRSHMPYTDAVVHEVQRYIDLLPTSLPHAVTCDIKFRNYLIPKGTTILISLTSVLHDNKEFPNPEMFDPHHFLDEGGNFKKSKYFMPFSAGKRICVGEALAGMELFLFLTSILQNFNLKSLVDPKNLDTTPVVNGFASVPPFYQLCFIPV
UniProt P10635, whole entry: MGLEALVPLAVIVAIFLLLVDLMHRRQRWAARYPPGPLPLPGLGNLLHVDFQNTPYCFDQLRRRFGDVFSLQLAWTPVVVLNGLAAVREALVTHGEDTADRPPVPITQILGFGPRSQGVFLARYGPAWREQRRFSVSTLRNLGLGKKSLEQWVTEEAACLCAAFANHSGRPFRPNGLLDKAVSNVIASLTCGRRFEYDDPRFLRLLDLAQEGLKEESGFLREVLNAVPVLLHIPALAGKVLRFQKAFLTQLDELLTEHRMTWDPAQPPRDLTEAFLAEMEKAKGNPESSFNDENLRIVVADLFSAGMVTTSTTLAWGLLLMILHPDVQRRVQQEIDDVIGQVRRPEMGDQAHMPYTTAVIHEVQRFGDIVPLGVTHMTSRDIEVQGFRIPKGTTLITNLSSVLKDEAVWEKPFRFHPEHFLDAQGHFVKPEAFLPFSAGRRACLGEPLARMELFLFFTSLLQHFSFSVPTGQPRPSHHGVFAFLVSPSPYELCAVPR
UniProt P05177, whole entry: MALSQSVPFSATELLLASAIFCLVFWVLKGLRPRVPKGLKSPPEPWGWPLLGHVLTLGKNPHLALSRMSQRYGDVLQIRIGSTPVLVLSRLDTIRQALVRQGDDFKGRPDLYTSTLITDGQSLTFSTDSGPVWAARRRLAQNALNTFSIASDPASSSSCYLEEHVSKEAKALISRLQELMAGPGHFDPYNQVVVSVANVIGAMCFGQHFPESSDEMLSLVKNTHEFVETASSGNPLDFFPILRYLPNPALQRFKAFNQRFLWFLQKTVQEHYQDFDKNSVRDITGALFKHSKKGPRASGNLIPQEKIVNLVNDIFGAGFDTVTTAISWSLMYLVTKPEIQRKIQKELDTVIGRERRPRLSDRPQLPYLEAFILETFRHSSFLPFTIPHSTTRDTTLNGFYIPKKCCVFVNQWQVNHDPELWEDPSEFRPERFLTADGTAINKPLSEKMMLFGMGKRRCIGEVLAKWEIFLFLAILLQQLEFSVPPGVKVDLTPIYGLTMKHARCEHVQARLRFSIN
UniProt P08684, whole entry: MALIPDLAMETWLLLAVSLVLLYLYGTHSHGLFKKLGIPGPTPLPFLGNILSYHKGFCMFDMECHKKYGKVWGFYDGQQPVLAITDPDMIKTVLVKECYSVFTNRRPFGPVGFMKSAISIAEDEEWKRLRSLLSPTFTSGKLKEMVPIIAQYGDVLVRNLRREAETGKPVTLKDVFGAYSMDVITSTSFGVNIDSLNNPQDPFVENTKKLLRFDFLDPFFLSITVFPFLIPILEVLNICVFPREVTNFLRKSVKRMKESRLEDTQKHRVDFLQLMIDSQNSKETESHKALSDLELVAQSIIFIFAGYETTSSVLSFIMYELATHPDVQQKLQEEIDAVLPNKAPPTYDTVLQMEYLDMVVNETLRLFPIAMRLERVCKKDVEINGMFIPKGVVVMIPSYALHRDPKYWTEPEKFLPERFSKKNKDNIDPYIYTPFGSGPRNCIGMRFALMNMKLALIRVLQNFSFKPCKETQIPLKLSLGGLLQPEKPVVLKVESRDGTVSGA

Tests used:
[1] = Bidirectional permeability across Caco-2 cell monolayers; conditions: human, Caco-2, pH 7.4
CYP2C19 = CYP2C19 (Homo sapiens, UniProt P33261); assay: Cytochrome P450 inhibition in human liver microsomes
CYP2C9 = CYP2C9 (Homo sapiens, UniProt P11712); assay: as above
CYP2D6 = CYP2D6 (Homo sapiens, UniProt P10635); assay: as above
CYP1A2 = CYP1A2 (Homo sapiens, UniProt P05177); assay: as above
CYP3A4 = CYP3A4 (Homo sapiens, UniProt P08684); assay: as above; conditions: for pIC50: highest concentration tested 20 µM; for pKi: human liver microsomes

| pKi (CYP1A2) | Compound | efflux ratio [1] | pIC50 (CYP2C19) | pIC50 (CYP2C9) | pKi (CYP2C9) | pIC50 (CYP2D6) | pKi (CYP2D6) | pIC50 (CYP1A2) | pIC50 (CYP3A4; CYP3A4 (midaz) IC50, human liver microsomes, CYP3A4 (midaz)) | pKi (CYP3A4; CYP3A4 (midaz) Ki, CYP3A4 (midaz)) | pIC50 (CYP3A4; CYP3A4 (test) IC50, human liver microsomes, CYP3A4 (test)) | pKi (CYP3A4; CYP3A4 (test) Ki, CYP3A4 (test)) |
| --- | --- | --- | --- | --- | --- | --- | --- | --- | --- | --- | --- | --- |
|  | CC[C@H]1OC(=O)[C@H](C)[C@@H](O[C@H]2C[C@@](C)(OC)[C@@H](O)[C@H](C)O2)[C@H](C)[C@@H](O[C@@H]2O[C@H](C)C[C@H](N(C)C)[C@H]2O)[C@](C)(O)C[C@@H](C)CN(C)[C@H](C)[C@@H](O)[C@]1(C)O [Azithromycin] | 33 |  |  |  |  |  |  |  |  |  |  |
|  | CC1(C)c2nc(-c3ccc(F)cc3)c(Nc3ccc(F)cc3)n2CCN1C(=O)CN [KAF156] |  | < 4.70 | 4.72 | 4.85 | 5.92 | 6.12 | < 4.70 | 5.60 | 5.74 | 5.57 | 5.80 |
| > 6.82 | COc1cc(NC(C)CCCN)c2ncccc2c1 (stereo not drawn) [Primaquine] |  | < 4.70 | < 4.70 |  | < 4.70 |  | > 6.60 |  |  |  |  |
|  | CCc1nc(N)nc(N)c1-c1ccc(Cl)cc1 [Pyrimethamine] |  | < 4.70 | < 4.70 |  |  |  |  |  |  |  |  |
